Experimental data as given in paper PMC3992280 (Biochimica et biophysica acta, 2014).

Tested on: Mycobacterium smegmatis strain mc^2155
Format: cell-based
Conditions: mc^2155 versus RHS 234

Compound: CO[C@H]1/C=C/O[C@@]2(C)Oc3c(C)c(O)c4c(O)c(c(/C=N/N5CCN(C)CC5)c(O)c4c3C2=O)NC(=O)/C(C)=C\C=C\[C@H](C)[C@H](O)[C@@H](C)[C@@H](O)[C@@H](C)[C@H](OC(C)=O)[C@@H]1C [Rifampin]
- resistance factor R (MICwt/MICmutant): 8
